Target: IKr (hERG protein channel) (Homo sapiens, UniProt Q12809)
Test: Patch clamp block of IKr tail current in transfected CHO cells
Details: for percentage block of IKr tail current: 1 μM drug, CHO cells transfected with hERG, full block with 10 μM E4031, 5 minute superfusion
Experimental: FIG. 2: IKr current was measured in Chinese hamster ovary cells (CHO) expressing the current.
The arrow denotes the tail current. Tail current is elicited by 3 second step voltage drop from +20 mV to −40 mV. The gray trace is the remaining current after total current block with E4031.
We used the conventional patch clamp method and human embryonic kidney cells transfected with Kir3.1 and Kir3.4 protein channels responsible for IKACh, or Chinese hamster ovary cells transfected with the hERG protein channel responsible for IKr. […] In order to elicit IKACh, the cells were subjected to a voltage protocol consisting of a 2 second ramp from −130 mV to 50 mV, from a holding potential of −40 mV. IKr tail current was elicited by a 3 second voltage drop step from 20 mV to −40 mV. The drugs were superfused over a 5 minute period into the chambers that hold the cells.

Sequences of proteins named here, by UniProt entry; tags and fusion partners are left off. A change or cut given only in a name is not applied to a line headed by its entry.
UniProt Q12809: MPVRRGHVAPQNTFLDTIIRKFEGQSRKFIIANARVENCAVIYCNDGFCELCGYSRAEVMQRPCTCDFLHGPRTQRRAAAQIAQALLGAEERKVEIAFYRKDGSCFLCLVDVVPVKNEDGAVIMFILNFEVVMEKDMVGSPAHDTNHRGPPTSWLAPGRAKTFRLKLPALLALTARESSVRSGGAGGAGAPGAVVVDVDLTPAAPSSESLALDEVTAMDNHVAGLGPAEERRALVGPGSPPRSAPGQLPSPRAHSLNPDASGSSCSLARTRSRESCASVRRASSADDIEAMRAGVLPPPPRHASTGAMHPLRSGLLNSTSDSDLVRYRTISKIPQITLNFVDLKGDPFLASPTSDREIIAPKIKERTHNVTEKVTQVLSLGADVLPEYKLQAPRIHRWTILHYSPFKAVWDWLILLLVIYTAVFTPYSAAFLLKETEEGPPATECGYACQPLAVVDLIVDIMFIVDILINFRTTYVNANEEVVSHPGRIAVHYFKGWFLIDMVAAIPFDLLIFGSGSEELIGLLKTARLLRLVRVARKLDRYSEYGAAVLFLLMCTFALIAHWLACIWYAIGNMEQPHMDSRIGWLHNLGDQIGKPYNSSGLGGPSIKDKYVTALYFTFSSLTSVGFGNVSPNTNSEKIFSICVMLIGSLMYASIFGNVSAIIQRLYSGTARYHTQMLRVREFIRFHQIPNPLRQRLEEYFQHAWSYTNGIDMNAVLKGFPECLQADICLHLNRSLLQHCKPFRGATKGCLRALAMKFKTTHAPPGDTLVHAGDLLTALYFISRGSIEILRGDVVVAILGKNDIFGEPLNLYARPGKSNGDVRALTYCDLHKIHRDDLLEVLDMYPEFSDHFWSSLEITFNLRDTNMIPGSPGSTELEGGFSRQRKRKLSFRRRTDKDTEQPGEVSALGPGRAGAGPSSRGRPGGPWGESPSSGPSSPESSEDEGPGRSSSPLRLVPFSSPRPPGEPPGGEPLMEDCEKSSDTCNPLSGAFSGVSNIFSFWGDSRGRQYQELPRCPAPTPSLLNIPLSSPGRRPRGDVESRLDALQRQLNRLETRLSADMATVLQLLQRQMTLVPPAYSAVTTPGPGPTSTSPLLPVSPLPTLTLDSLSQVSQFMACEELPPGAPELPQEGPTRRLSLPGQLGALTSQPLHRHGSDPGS

With chloroquine [racemic chloroquine] the “percentage block of IKr tail current” value was 33%, the “percentage block of IKr tail current” value (listed as Racemic chloroquine) was 32.9%±1.2 and the “percentage block of IKr current (FIG. 5, Compound A experiments)” value (Compound A vs racemic chloroquine, same manner and cell lines, concentration not given) was 68%±2.8.

— patent US20170258781A1, “ATRIAL SPECIFIC ANTIARRHYTHMICS FOR USE IN TREATING OR PREVENTING ATRIAL FIBRILLATION” (Tufts Medical Center, Inc., priority 2014, published 2017)
